Literature values, collected in article PMC10633918.

Columns and labels:
[1] = biological target: LL-37 (Homo sapiens)
[2] = biological target: PSMα3 (Staphylococcus aureus)

Question: Which results are given for “alpha-synuclein (type B* oligomers) (from UniProt P37840)”?
Answer: Kd [1]: 5.14 nM; Kd [2]: 3.62 nM
